The experiment deals with D-1 receptor (Rattus norvegicus, UniProt P18901). The conditions noted are these: rat striatum; for potency in inhibiting [N-methyl-^3 H] Compound binding: competition curves.

Sequences of proteins named here, by UniProt entry; tags and fusion partners are left off.
UniProt P18901, whole entry: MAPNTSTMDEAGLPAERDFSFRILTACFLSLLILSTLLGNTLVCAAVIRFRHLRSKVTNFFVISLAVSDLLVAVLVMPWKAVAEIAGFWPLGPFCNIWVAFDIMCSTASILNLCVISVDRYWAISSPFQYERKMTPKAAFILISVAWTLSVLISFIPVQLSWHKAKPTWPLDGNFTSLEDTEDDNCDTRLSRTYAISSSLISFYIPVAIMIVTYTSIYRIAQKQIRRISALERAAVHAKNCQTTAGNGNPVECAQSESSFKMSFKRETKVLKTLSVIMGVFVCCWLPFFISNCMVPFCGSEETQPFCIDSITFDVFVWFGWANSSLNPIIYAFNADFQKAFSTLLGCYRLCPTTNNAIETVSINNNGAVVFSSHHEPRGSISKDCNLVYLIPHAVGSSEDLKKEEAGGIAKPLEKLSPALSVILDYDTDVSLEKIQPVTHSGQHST

SMILES strings stand for the structures.

As to `CN1CCc2cc(Cl)c(O)cc2[C@@H](c2ccccc2)C1` [Compound, R-(+)-8-chloro-2,3,4,5-tetrahydro-3-methyl-5-phenyl-1H-3-benzazepin-7-ol], the “potency in inhibiting [N-methyl-^3 H] Compound binding” value is “most potent”. For the same compound, the “Hill coefficient (slope of Hill plot)” value (competition with fixed concentration of [N-methyl-^3 H] Compound) is listed as 1.02.

Take `CN1CCc2cc(Cl)c(O)cc2[C@H](c2ccccc2)C1` [S-isomer of Compound]: the “potency in inhibiting [N-methyl-^3 H] Compound binding” value is reported as “greatly reduced potency”.

Values taken from patent US4760029A, “Assay for D-1 antagonistic activity of neuroleptic drugs” (Schering Corporation, priority 1984, dated 1988).
